Reference: PMC12802937 (Nucleic Acids Research, 2026)

Tests used:
Assay in all cases: SPR; Lge1-CT immobilised on a CM5 chip, Bre1-LR flown over; Biacore 8K, 25°C, 20 mM HEPES (pH 7.5), 200 mM sodium chloride, 0.02% Tween 20
Conditions in all cases: both partners purified
Bre1-LR K352E/K528E = target: T1, Bre1-LR K352E/K528E (budding yeast, UniProt Q07457 227-700, K352E | K528E)
T1 construct: source: E. coli BL21 Rosetta (DE3), purified (Ni-NTA, heparin, gel filtration)
T1 sequence (looked up): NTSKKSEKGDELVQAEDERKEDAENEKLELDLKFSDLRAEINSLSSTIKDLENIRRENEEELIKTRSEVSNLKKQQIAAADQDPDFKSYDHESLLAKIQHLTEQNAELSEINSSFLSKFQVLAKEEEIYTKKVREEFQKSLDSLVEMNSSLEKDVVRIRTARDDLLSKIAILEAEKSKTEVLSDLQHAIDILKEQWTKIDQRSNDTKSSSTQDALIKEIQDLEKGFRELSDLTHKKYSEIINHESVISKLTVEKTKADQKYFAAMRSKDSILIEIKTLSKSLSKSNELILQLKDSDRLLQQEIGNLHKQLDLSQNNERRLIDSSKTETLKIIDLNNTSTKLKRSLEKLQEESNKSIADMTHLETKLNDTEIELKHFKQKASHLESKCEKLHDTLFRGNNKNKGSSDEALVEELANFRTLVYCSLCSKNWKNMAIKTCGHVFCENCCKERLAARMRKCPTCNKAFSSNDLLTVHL

[1] = target: T2, Bre1-LR (Bre1 residues 227–700, LBD and RING domains), 6× histidine tag (budding yeast, UniProt Q07457 227-700)
T2 construct: two Bre1 polypeptides form the dimeric coiled-coils of the LBD in the crystal structure; also called WT; source: E. coli BL21 Rosetta (DE3), purified (Ni-NTA, heparin, gel filtration)
T2 sequence (looked up): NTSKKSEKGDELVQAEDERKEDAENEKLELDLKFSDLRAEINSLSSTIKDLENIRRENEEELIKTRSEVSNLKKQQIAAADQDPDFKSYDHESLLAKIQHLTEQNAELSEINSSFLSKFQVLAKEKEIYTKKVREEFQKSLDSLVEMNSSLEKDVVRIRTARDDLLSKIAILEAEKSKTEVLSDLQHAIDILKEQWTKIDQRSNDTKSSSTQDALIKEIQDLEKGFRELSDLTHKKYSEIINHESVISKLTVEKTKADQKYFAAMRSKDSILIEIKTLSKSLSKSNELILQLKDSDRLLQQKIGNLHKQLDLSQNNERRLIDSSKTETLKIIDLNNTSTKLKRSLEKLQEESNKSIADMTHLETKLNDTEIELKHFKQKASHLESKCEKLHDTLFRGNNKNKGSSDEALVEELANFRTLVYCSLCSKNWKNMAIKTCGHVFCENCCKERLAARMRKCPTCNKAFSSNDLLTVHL

[2] = target: T3, Bre1-LR R360E/D368K/K519E (budding yeast, UniProt Q07457 227-700, R360E | D368K | K519E)
T3 construct: source: E. coli BL21 Rosetta (DE3), purified (Ni-NTA, heparin, gel filtration)
T3 sequence (looked up): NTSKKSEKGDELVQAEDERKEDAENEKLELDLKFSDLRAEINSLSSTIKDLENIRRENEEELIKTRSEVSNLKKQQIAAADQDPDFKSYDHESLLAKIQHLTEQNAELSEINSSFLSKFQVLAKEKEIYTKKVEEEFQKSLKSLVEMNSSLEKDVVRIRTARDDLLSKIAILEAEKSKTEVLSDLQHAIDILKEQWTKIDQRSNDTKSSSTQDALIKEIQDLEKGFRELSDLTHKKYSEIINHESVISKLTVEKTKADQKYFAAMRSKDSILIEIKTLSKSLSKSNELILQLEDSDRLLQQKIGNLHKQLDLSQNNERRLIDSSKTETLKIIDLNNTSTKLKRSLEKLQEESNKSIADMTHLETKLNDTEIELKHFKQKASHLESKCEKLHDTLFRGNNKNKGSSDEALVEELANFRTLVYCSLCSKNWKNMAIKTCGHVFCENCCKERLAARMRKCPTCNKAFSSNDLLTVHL

Bre1-LR K506E/K510E = target: T4, Bre1-LR K506E/K510E (budding yeast, UniProt Q07457 227-700, K506E | K510E)
T4 construct: source: E. coli BL21 Rosetta (DE3), purified (Ni-NTA, heparin, gel filtration)
T4 sequence (looked up): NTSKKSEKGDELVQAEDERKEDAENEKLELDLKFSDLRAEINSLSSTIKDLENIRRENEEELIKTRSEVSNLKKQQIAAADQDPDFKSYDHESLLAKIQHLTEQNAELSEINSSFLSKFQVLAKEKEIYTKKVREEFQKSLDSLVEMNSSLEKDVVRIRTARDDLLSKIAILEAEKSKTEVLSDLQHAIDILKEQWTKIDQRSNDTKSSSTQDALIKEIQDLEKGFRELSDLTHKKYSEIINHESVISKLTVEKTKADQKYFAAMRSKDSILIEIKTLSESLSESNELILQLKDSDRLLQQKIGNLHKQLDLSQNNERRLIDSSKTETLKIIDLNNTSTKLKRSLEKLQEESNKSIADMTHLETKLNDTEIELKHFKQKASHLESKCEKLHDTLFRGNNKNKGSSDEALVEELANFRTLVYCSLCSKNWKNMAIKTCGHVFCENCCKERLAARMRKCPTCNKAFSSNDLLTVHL

B1: Lge1-CT D287K (domain or fragment, budding yeast, UniProt Q02796 261-332, looked up)
chain: KNVKKTNNTESECEKAREVFKESDSIKSALEELNLKINSNELELRLLNNQCDKHALNIQLTQEKLDSLLLMQ
notes: Lge1, budding yeast, residues 261-332; source: E. coli BL21 Rosetta (DE3): cleared cell extract on chitin resin (pull-down); purified (chitin, heparin, gel filtration) for ITC and SPR
Kd (Bre1-LR K352E/K528E): 346 nM | koff (Bre1-LR K352E/K528E): 0.00574 s⁻¹ | kon (Bre1-LR K352E/K528E): 16600 M⁻¹ s⁻¹

B2: Lge1-CT E301K/R305E (domain or fragment, budding yeast, UniProt Q02796 261-332, looked up)
chain: KNVKKTNNTESECEKAREVFKESDSIDSALEELNLKINSNKLELELLNNQCDKHALNIQLTQEKLDSLLLMQ
notes: as for B1
koff [1]: 0.00431 s⁻¹ | kon [1]: 52800 M⁻¹ s⁻¹ | Kd [2]: 579 nM | koff [2]: 0.00543 s⁻¹ | kon [2]: 9370 M⁻¹ s⁻¹

B3: Lge1-CT E303K (domain or fragment, budding yeast, UniProt Q02796 261-332, looked up)
chain: KNVKKTNNTESECEKAREVFKESDSIDSALEELNLKINSNELKLRLLNNQCDKHALNIQLTQEKLDSLLLMQ
notes: as for B1
Kd (Bre1-LR K506E/K510E): 81.7 nM | koff (Bre1-LR K506E/K510E): 0.00236 s⁻¹ | kon (Bre1-LR K506E/K510E): 28900 M⁻¹ s⁻¹ | koff [1]: 0.00241 s⁻¹ | kon [1]: 37800 M⁻¹ s⁻¹
